# Reference: patent US9546173B2 (Novartis AG, priority 2012, dated 2017)
# By UniProt entry, the sequences of proteins in these tests, tags left out.
# UniProt Q15418, whole entry, species assumed: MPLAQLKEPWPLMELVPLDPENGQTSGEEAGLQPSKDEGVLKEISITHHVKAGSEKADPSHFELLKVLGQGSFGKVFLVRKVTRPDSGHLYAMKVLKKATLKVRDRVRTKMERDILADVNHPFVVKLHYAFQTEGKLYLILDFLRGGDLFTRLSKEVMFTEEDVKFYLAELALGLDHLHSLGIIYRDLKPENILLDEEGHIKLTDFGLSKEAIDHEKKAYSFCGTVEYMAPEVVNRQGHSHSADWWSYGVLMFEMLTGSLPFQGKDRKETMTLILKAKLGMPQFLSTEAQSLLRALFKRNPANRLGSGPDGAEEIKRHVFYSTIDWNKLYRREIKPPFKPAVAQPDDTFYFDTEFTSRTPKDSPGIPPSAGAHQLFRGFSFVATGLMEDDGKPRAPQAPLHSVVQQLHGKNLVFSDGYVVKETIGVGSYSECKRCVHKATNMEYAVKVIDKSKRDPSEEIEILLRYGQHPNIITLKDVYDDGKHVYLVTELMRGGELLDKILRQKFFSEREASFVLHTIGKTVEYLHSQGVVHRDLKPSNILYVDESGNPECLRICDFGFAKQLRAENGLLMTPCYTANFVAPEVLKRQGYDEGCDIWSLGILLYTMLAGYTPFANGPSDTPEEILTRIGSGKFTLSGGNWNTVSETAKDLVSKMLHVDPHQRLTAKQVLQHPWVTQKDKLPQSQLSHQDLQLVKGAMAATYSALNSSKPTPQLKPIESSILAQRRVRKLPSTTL
# UniProt P51812, whole entry, species assumed: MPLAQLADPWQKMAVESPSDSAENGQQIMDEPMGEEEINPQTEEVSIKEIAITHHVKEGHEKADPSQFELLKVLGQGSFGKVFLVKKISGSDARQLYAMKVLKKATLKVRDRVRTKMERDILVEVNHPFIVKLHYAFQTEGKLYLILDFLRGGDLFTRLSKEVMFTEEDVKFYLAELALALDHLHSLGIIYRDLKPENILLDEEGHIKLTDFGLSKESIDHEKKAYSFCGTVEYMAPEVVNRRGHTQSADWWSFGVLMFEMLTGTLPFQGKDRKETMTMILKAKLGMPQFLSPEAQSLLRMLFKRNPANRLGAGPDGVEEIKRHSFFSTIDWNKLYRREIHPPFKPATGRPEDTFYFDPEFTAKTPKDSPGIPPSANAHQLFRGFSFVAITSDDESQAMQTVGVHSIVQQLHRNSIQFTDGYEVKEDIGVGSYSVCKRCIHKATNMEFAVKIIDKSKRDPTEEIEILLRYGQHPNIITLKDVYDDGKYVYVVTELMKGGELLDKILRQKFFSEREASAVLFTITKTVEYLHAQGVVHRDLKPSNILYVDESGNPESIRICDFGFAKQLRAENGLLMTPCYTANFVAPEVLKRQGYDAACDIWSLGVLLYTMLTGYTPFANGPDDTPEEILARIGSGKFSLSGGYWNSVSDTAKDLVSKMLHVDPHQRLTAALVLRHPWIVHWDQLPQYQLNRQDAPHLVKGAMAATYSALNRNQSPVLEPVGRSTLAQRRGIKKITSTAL
# UniProt P28482, whole entry: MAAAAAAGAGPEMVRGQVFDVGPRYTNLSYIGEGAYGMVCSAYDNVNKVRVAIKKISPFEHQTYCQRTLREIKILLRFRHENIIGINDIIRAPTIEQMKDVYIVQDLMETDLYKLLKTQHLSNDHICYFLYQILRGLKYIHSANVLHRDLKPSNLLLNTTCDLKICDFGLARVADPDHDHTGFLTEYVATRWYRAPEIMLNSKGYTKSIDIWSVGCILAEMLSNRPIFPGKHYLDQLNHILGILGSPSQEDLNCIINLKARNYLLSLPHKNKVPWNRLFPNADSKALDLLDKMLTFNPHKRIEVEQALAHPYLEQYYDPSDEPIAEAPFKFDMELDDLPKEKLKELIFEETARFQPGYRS
# Where two headings read alike, the source gives them in different places.
# Assays:
# Type in all cases: biochemical
# RSK1 = RSK1 (Homo sapiens (Human), UniProt Q15418); assay: In vitro inhibition of RSK1; conditions: in vitro activity on RSK1
# Experimental: (§1) The following Table 3 lists compounds that were tested for inhibition of RSK; the IC50 values are in micromolar units, and refer to inhibition of RSK1 and RSK2, respectively. Where multiple measurements were made, each value is reported.
# RSK2 = RSK2 (Homo sapiens (Human), UniProt P51812); assay: In vitro inhibition of RSK2; conditions: in vitro activity on RSK2; where multiple measurements were made, each value is reported
# Experimental: as §1
# activated ERK2 = activated ERK2 (Homo sapiens (Human), UniProt P28482); assay: Activated ERK2 kinase assay (AlphaScreen, ERKtide peptide phosphorylation)
# Text: Production of Activated ERK2 Protein:
# Activated ERK2 protein was generated in insect cells by co-expression with a constitutively active form of MEK1. The ERK2 protein was expressed and purified as a nHis-PreScission-ERK2 tagged protein and then proteolytically processed to the full-length wild-type protein. The resulting ERK2 protein was a mixture of phosphorylation states. Double-phosphorylated ERK2 protein was purified from the mixture by mono-Q column separation.
# Activated ERK2 Kinase Assay:
# Compound potency against activated ERK2 was determined using a kinase assay that measures ERK2-catalyzed phosphorylation of biotinylated ERKtide peptide substrate ([Biotin]-AH[…]- [NH2], the peptide sequence derived from EGF receptor: SEQ ID NO:1). The assay was carried out in 50 mM HEPES [pH 7.5], 5 mM MgCl2, 1 mM DTT, 0.01% Tween-20, 0.05% BSA using 0.25 nM ERK2, 200 nM ERKtide peptide and 35 μM ATP (all concentrations are final in the reaction) in a total volume of 10.25 μL. A 16-point, half-log dilution series of compounds at 41× final concentration was used for generating IC50 curves. Compound dilution series were prepared in 100% DMSO. ERK2 was preincubated with compounds for 30 minutes at ambient temperature. Reaction was initiated by addition of a substrate cocktail of ERKtide peptide and ATP and was allowed to proceed for 2-3 hours at ambient temperature. Reaction was terminated by addition of 10 μL of a 2× stop buffer consisting of 100 mM Tris-Cl [pH 7.5], 25 mM EDTA, 0.01% Tween 20, 10 μg/mL of AlphaScreen Protein A Acceptor Beads, 10 μg/mL of Streptavidin Donor Beads (PerkinElmer, Waltham, Mass.), and 1.4 μg/mL phospho-EGF Receptor (Thr669) antibody (Cat #3056, Cell Signaling Technology, Danvers, Mass.). Terminated reactions were read, after overnight incubation in the dark, on an EnVision Multilabel Plate Reader (PerkinElmer, Waltham, Mass.), with excitation and emission wavelengths set to 680 nm and 570 nm, respectively. IC50 values were determined using a four-parameter fit. Table 2 provides biological test data for the compounds of Table 1 produced using this assay method.
# [1] = 0.25 nM ERK2, 200 nM ERKtide peptide, 35 μM ATP, 30 min preincubation, read-out: ERK2 IC50
SMILES,IC50 (RSK1),IC50 (RSK2),IC50 (activated ERK2; [1]),"IC50 (activated ERK2; comparative example text, read-out: IC50 on ERK2)"
"C[C@@H](NC(=O)N1Cc2nc(Nc3ccccc3)ncc2C1(C)C)c1ccccc1 [compound 156, (R)-5,5-dimethyl-2-(phenylamino)-N-(1-phenylethyl)-5H-pyrrolo[3,4-d]pyrimidine-6(7H)-carboxamide]",3600 nM,,117 nM,
"C[C@H](CN(C)C)NC(=O)N1Cc2nc(Nc3ccccc3)ncc2C1(C)C [compound 150, (R)-N-(1-(dimethylamino)propan-2-yl)-5,5-dimethyl-2-(phenylamino)-5H-pyrrolo[3,4-d]pyrimidine-6(7H)-carboxamide]",,906 nM,,
"CC(CN(C)C)NC(=O)N1Cc2nc(Nc3ccccc3)ncc2C1(C)C (centres unmarked) [compound 152, N-(1-(dimethylamino)propan-2-yl)-5,5-dimethyl-2-(phenylamino)-5H-pyrrolo[3,4-d]pyrimidine-6(7H)-carboxamide]",1230 nM,1360 nM,29100 nM,
"CN(C)C[C@@H](NC(=O)N1Cc2nc(Nc3ccccc3)ncc2C1(C)C)c1ccccc1 [compound 148, (S)-N-(2-(dimethylamino)-1-phenylethyl)-5,5-dimethyl-2-(phenylamino)-5H-pyrrolo[3,4-d]pyrimidine-6(7H)-carboxamide]",94 nM,,448 nM,

# Further lines, results first:
IC50 (RSK1),IC50 (RSK2),IC50 (activated ERK2; [1]),"IC50 (activated ERK2; comparative example text, read-out: IC50 on ERK2)",SMILES
17700 nM,20200 nM,,,"CN(C)C[C@H](NC(=O)N1Cc2nc(Nc3ccccc3)ncc2C1(C)C)c1ccccc1 [compound 168, (R)-N-(2-(dimethylamino)-1-phenylethyl)-5,5-dimethyl-2-(phenylamino)-5H-pyrrolo[3,4-d]pyrimidine-6(7H)-carboxamide]"
,,35300 nM,,"C[C@H](NC(=O)N1Cc2nc(Nc3ccccc3)ncc2C1(C)C)c1ccccc1 [compound 169, (S)-5,5-dimethyl-2-(phenylamino)-N-(1-phenylethyl)-5H-pyrrolo[3,4-d]pyrimidine-6(7H)-carboxamide]"
,,1.54 nM,1.5 nM,"CC1c2cnc(NC3CCOCC3)nc2CN1C(=O)N[C@H](C)c1cccc(Cl)c1 (stereo partly drawn) [compound 170, N-((R)-1-(3-chlorophenyl)ethyl)-5-methyl-2-((tetrahydro-2H-pyran-4-yl)amino)-5H-pyrrolo[3,4-d]pyrimidine-6(7H)-carboxamide]"
,17500 nM,,,"C[C@@H](CN(C)C)NC(=O)N1Cc2nc(Nc3ccccc3)ncc2C1(C)C [compound 167, (S)-N-(1-(dimethylamino)propan-2-yl)-5,5-dimethyl-2-(phenylamino)-5H-pyrrolo[3,4-d]pyrimidine-6(7H)-carboxamide]"
